# Source: publication PMC3794980, “Identification of Conserved and HLA Promiscuous DENV3 T-Cell Epitopes” (PLoS Neglected Tropical Diseases, 2013)
# Read-outs that look alike come from different tables or passages of the source.
# Columns and labels:
# DRB4*0101 = DRB4*0101 (Homo sapiens, UniProt P01903+P13762, G164S); test: biochemical; assay type: binding; conditions: read-out: Binding Affinity (nM) DRB4*0101
# DRB1*0701 = DRB1*0701 (Homo sapiens, UniProt P01903+P01911, A100R/A102G/A103Q/D57E/D86V/E43K/F76Y/K127E/L162R/M171V/P40G/Q125H/Q99D/R33Q/R42Y/R54Q/S133A/S66F/T210M/V115G/Y107V/Y59L/Y89S); test: biochemical; assay type: binding
# DRB1*0901 = DRB1*0901 (Homo sapiens, UniProt P01903+P01911, A100R/A103E/D57H/D86V/F55Y/F60I/F76Y/I96F/K127E/L162R/M171V/P40D/Q125H/Q99R/R33Q/R42F/S133A/S66N/T210M/V115G/W38K/Y107V/Y59G/Y89S); test: biochemical; assay type: binding
# DRB1*1501 = DRB1*1501 (Homo sapiens, UniProt P01903+P01911); test: biochemical; assay type: binding
# DRB1*1101 = DRB1*1101 (Homo sapiens, UniProt P01903+P01911, A100R/A169T/A87E/I96F/K41T/L162R/M171V/P40S/Q125H/Q178H/Q39Y/Q99D/R42S/S66Y/T262R/V115G/W38E); test: biochemical; assay type: binding
# DRB1*0101 = DRB1*0101 (Homo sapiens, UniProt P01903+P01911, A100R/D57E/F55L/F60I/F76Y/I96L/L162R/M171V/P40L/Q125E/R42F/V115G/Y59C); test: biochemical; assay type: binding
# DRB1*1302 = DRB1*1302 (Homo sapiens, UniProt P01903+P01911, A100E/A169T/K41T/L162R/M171V/P40S/Q125H/Q178H/Q39Y/Q99D/R42S/S66N/T262R/V115G/W38E/Y61H); test: biochemical; assay type: binding
# DRB1*0802 = DRB1*0802 (Homo sapiens, UniProt P01903+P01911, A100R/A103L/A169T/F76Y/H45Y/I96F/K41T/L162R/M171V/P40S/Q125H/Q178H/Q39Y/Q99D/R218S/R42G/S66Y/V115G/W38E); test: biochemical; assay type: binding
# DRB1*0405 = DRB1*0405 (Homo sapiens, UniProt P01903+P01911, A100R/A169T/D86S/F76Y/I96L/K127E/L162R/M171V/N62H/P40V/Q125Y/R42H/S133A/S149N/S66Y/V115G/V209L/W38E); test: biochemical; assay type: binding
# DRB1*0301 = DRB1*0301 (Homo sapiens, UniProt P01903+P01911, A100K/A102G/A103R/A169T/F55Y/I96L/K41T/L162R/M171V/P40S/Q125H/Q178H/Q39Y/R42S/S66N/T106N/T262R/W38E/Y61H); test: biochemical; assay type: binding
# DRB1*0404 = DRB1*0404 (Homo sapiens, UniProt P01903+P01911, A100R/A169T/F76Y/I96L/K127E/L162R/M171V/N62H/P40V/Q125Y/R42H/S133A/S149N/S66Y/V209L/W38E); test: biochemical; assay type: binding
# DRB1*0401 = DRB1*0401 (Homo sapiens, UniProt P01903+P01911, A100K/A169T/F76Y/I96L/K127E/L162R/M171V/N62H/P40V/Q125Y/R42H/S133A/S149N/S66Y/V115G/V209L/W38E); test: biochemical; assay type: binding; conditions: read-out: Binding Affinity (nM) DRB1*0401
# [1] = test system: HLA transgenic mice (A02, A24, B07, DR2, DR3 and DR4); test: Immunogenicity screen in six HLA transgenic mice strains (summary); assay type: in vivo; conditions: IFN-γ ELISPOT in six TgM strains; Negative = none
compound,measurement,setting,value
CC[C@H](C)[C@H](NC(=O)[C@H](CCC(=O)O)NC(=O)CNC(=O)[C@@H](NC(=O)[C@@H](NC(=O)[C@@H](NC(=O)[C@H](CCC(N)=O)NC(=O)[C@H](Cc1ccccc1)NC(=O)[C@@H](NC(=O)CNC(=O)[C@@H]1CCCN1C(=O)[C@H](CCSC)NC(=O)[C@@H](NC(=O)[C@H](CCC(N)=O)NC(=O)[C@@H](N)Cc1ccccc1)[C@@H](C)O)[C@@H](C)O)[C@@H](C)O)[C@@H](C)O)[C@@H](C)O)C(=O)O [NS3 109-123],IC50,DRB4*0101,> 20000 nM
CC[C@H](C)[C@H](NC(=O)[C@H](CC(=O)O)NC(=O)[C@@H](NC(=O)[C@@H](NC(=O)[C@@H](NC(=O)[C@@H](NC(=O)[C@@H](N)Cc1ccccc1)C(C)C)C(C)C)[C@@H](C)O)[C@@H](C)O)C(=O)N[C@@H](CO)C(=O)N[C@@H](CCC(=O)O)C(=O)N[C@@H](CCSC)C(=O)NCC(=O)N[C@@H](C)C(=O)N[C@@H](CC(N)=O)C(=O)N[C@@H](Cc1ccccc1)C(=O)N[C@@H](CCCCN)C(=O)O [NS3 405-419],IC50,DRB1*0701,3630 nM
same,IC50,DRB1*0901,11600 nM
same,IC50,DRB1*1501,1360 nM
same,IC50,DRB1*1101,2960 nM
same,IC50,DRB4*0101,> 20000 nM
same,IC50,DRB1*0101,1950 nM
same,IC50,DRB1*1302,1790 nM
CC(C)[C@H](NC(=O)[C@H](CCC(=O)O)NC(=O)[C@H](Cc1ccc(O)cc1)NC(=O)[C@H](CO)NC(=O)CNC(=O)[C@H](Cc1c[nH]cn1)NC(=O)[C@H](Cc1ccc(O)cc1)NC(=O)[C@H](C)NC(=O)[C@H](Cc1c[nH]c2ccccc12)NC(=O)[C@@H](NC(=O)[C@H](CCCCN)NC(=O)[C@H](Cc1ccc(O)cc1)NC(=O)[C@@H]1CCCN1C(=O)[C@H](CC(N)=O)NC(=O)[C@H](CCC(=O)O)NC(=O)[C@@H](N)CC(=O)O)[C@@H](C)O)C(=O)N[C@@H](CCCCN)C(=O)O [NS5 295-311],IC50,DRB1*1101,2730 nM
same,IC50,DRB4*0101,> 20000 nM
same,IC50,DRB1*0802,1200 nM
CC(C)[C@H](NC(=O)[C@H](CCC(=O)O)NC(=O)[C@H](Cc1ccc(O)cc1)NC(=O)[C@H](CO)NC(=O)CNC(=O)[C@H](Cc1c[nH]cn1)NC(=O)[C@H](Cc1ccc(O)cc1)NC(=O)[C@H](C)NC(=O)[C@H](Cc1c[nH]c2ccccc12)NC(=O)[C@@H](N)[C@@H](C)O)C(=O)N[C@@H](CCCCN)C(=O)N[C@@H](C)C(=O)N[C@H](C(=O)NCC(=O)N[C@@H](CO)C(=O)N[C@@H](C)C(=O)O)[C@@H](C)O [NS5 301-316],IC50,DRB1*0405,3140 nM
same,IC50,DRB4*0101,> 20000 nM
same,IC50,DRB1*1302,3610 nM
same,IC50,DRB1*0802,1180 nM
same,IC50,DRB1*0301,1280 nM
CC[C@H](C)[C@H](NC(=O)[C@H](Cc1ccc(O)cc1)NC(=O)CNC(=O)[C@H](CC(C)C)NC(=O)[C@H](CCCCN)NC(=O)[C@H](Cc1c[nH]cn1)NC(=O)[C@H](CC(C)C)NC(=O)CNC(=O)[C@H](CCC(=O)O)NC(=O)CNC(=O)[C@H](CCC(=O)O)NC(=O)[C@@H](NC(=O)CNC(=O)[C@H](CO)NC(=O)[C@H](Cc1ccc(O)cc1)NC(=O)[C@H](CO)NC(=O)[C@@H](N)CC(N)=O)C(C)C)C(=O)O [NS5 501-517],IC50,DRB4*0101,> 20000 nM
CC[C@H](C)[C@H](NC(=O)[C@H](CC(C)C)NC(=O)[C@H](CCC(=O)O)NC(=O)[C@H](CC(=O)O)NC(=O)[C@H](CCC(N)=O)NC(=O)[C@@H]1CCCN1C(=O)[C@H](CCCNC(=N)N)NC(=O)[C@H](CS)NC(=O)[C@@H]1CCCN1C(=O)[C@@H](NC(=O)[C@@H](NC(=O)[C@H](CC(C)C)NC(=O)[C@H](CCCCN)NC(=O)[C@H](CCCNC(=N)N)NC(=O)CNC(=O)[C@H](CC(=O)O)NC(=O)[C@@H](N)CCCCN)C(C)C)C(C)C)C(=O)O [NS5 719-735],IC50,DRB1*0701,5560 nM
same,IC50,"DRB1*0901; competitive inhibition of radiolabeled standard peptide, DRB1*0901, read-out: Binding Affinity (nM) DRB1*0901",5510 nM
same,IC50,DRB1*0405,22 nM
same,IC50,DRB1*0404,190 nM
same,IC50,DRB1*1501,1950 nM
same,IC50,DRB1*1101,1030 nM
same,IC50,DRB1*0101,214 nM
same,IC50,"DRB1*1302; competitive inhibition of radiolabeled standard peptide, DRB1*1302, read-out: Binding Affinity (nM) DRB1*1302",229 nM
same,IC50,DRB1*0802,9360 nM
same,IC50,DRB1*0301,44 nM
same,IC50,DRB1*0401,> 20000 nM
"AAEMEEALKGLPIRY [NS3_229–243, DENV3 NS3 15-mer overlapping library peptide]",TGM (HLA transgenic mice in which the peptide was immunogenic),[1],Negative/NDNegative/NDNegative/ND
"DGEYRLKGESRKTFV [NS3_521–535, DENV3 NS3 15-mer overlapping library peptide]",TGM (HLA transgenic mice in which the peptide was immunogenic),[1],Negative/NDNegative/NDNegative/ND
"EIWTKEGEKKKLRPR [NS3_581–595, DENV3 NS3 15-mer overlapping library peptide]",TGM (HLA transgenic mice in which the peptide was immunogenic),[1],Negative
"ESRKTFVELMRRGDL [NS3_529–543, DENV3 NS3 15-mer overlapping library peptide]",TGM (HLA transgenic mice in which the peptide was immunogenic),[1],Negative/NDNegative/NDNegative/ND
"FFDLPLPWTSGATTE [Env211–225, DENV3 Envelope 15-mer overlapping library peptide]",TGM (HLA transgenic mice in which the peptide was immunogenic),[1],Negative/NDNegative/ND
"GTSGSPIINREGKVV [NS3_133–147, DENV3 NS3 15-mer overlapping library peptide]",TGM (HLA transgenic mice in which the peptide was immunogenic),[1],Negative/NDNegative/ND
"IVDLMCHATFTMRLL [NS3_257–271, DENV3 NS3 15-mer overlapping library peptide]",TGM (HLA transgenic mice in which the peptide was immunogenic),[1],Negative/NDNegative/NDNegative/ND
"KEGEKKKLRPRWLDA [NS3_585–599, DENV3 NS3 15-mer overlapping library peptide]",TGM (HLA transgenic mice in which the peptide was immunogenic),[1],Negative
"KSEHTGREIVDLMCH [NS3_249–263, DENV3 NS3 15-mer overlapping library peptide]",TGM (HLA transgenic mice in which the peptide was immunogenic),[1],Negative/NDNegative/NDNegative/ND
"KVVGLYGNGVVTKNG [NS3_145–159, DENV3 NS3 15-mer overlapping library peptide]",TGM (HLA transgenic mice in which the peptide was immunogenic),[1],Negative
"KYTDRKWCFDGERNN [NS3_557–571, DENV3 NS3 15-mer overlapping library peptide]",TGM (HLA transgenic mice in which the peptide was immunogenic),[1],Negative/NDNegative/ND
"LTIMDLHPGSGKTRK [NS3_189–203, DENV3 NS3 15-mer overlapping library peptide]",TGM (HLA transgenic mice in which the peptide was immunogenic),[1],Negative
"NMDVEIWTKEGEKKK [NS3_577–591, DENV3 NS3 15-mer overlapping library peptide]",TGM (HLA transgenic mice in which the peptide was immunogenic),[1],Negative
"SEGIKYTDRKWCFDG [NS3_553–547, DENV3 NS3 15-mer overlapping library peptide]",TGM (HLA transgenic mice in which the peptide was immunogenic),[1],Negative/NDNegative/ND
"TGREIVDLMCHATFT [NS3_253–267, DENV3 NS3 15-mer overlapping library peptide]",TGM (HLA transgenic mice in which the peptide was immunogenic),[1],Negative/NDNegative/NDNegative/ND
"TRVVAAEMEEALKGL [NS3_225–239, DENV3 NS3 15-mer overlapping library peptide]",TGM (HLA transgenic mice in which the peptide was immunogenic),[1],Negative/NDNegative/NDNegative/ND
"VHRQWFFDLPLPWTS [Env206–220, DENV3 Envelope 15-mer overlapping library peptide]",TGM (HLA transgenic mice in which the peptide was immunogenic),[1],Negative/NDNegative/ND
